Tested on: GST-Shp2 PTP domain protein
Conditions: tested form: meglumine salt

Compound: O=C1Nc2ccc(S(=O)(=O)NCc3ccc(F)cc3)cc2C1=NNc1cccc(C(=O)O)c1
- IC50: 2800 nM

— patent US8623906B2, “Carboxy isatin hydrazones and their esters as Shp2 inhibitors” (H. Lee Moffitt Cancer Center and Research Institute, Inc., priority 2009, dated 2014)
